Source: patent US20250277012A1 (Protagonist Therapeutics, Inc., priority 2021, published 2025)
Read-outs that look alike come from different tables or passages of the source.

Experiments:
[1] = molecular target: T1, ferroportin (Homo sapiens, UniProt Q9NP59); assay: FPN activity assay: ferroportin-GFP internalization/degradation in HEK293 cells; format: cell-based; design: expressed in transfected cells
T1 sequence (Q9NP59 1-571): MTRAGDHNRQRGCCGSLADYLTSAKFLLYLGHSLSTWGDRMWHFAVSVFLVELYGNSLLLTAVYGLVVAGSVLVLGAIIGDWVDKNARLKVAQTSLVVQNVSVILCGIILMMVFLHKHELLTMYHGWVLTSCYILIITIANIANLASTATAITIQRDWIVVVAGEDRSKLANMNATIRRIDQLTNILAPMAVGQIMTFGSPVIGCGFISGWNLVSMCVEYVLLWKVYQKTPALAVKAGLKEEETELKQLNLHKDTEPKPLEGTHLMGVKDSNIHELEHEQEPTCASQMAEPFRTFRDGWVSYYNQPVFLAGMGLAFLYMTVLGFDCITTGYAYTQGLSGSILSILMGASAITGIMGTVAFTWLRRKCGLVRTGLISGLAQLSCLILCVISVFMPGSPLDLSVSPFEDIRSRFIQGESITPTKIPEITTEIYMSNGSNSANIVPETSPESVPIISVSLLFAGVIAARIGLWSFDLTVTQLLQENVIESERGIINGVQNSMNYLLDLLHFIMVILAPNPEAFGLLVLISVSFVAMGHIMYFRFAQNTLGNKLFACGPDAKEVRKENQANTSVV

[2] = molecular target: T1, ferroportin; assay: T47D cell-based ferroportin internalization assay in presence of mouse serum albumin (MSA); design: a human breast carcinoma adherent cell line which endogenously expresses ferroportin; host or cells: T47D; details: Table 6D; T47D internalization assay with MSA
Procedure: The potency of the peptides in causing ferroportin internalization was evaluated in a T47D cell-based assay. […] In this internalization assay, the potency of the test peptides was evaluated in presence of serum albumin which is the main protein component in the blood. T47D cells were maintained in RPMI media (containing required amount of fetal bovine serum) and regularly sub-cultured. In preparation for the assay, the cells were seeded in 96-well plates at a density of 80-100 k cells per well in 100 ul volume and allowed to rest overnight. […] Sigma, A3139). The test peptide dilution series were allowed to incubate at room temperature for 30 min. Then the media was aspirated from the 96-well cell plate and test peptide dilution series were added. […] The AF647-conjugated detection peptide was previously verified to bind to ferroportin and cause its internalization. The cells were washed again after a 2 hr incubation in preparation for flow cytometry analysis. The Median Fluorescence Intensity (MFI) of the AF647-positive population was measured (after removing dead cells and non-singlets from the analysis). The MFI values were used to generate a dose-response curve and obtain IC50 potencies for the test peptides.

[3] = Table 6D, at least 18 hours incubation, read-out: FPN IC50

| Structure (SMILES) | DC50 ([1]; read-out: FPN IC50, Table 6D, at least 18 hours incubation) [nM] | DC50 [1, 3] [nM] | IC50 [2] [nM] |
| --- | --- | --- | --- |
| CCCCCCCCCCCCCCCC(=O)NCC[N+](C)(C)CC(=O)NCCOCCOCC(=O)NCCOCCOCC(=O)NCCCC[C@H](NC(=O)[C@@H]1CSSC[C@H](NC(=O)[C@H](CCC(=O)O)NC(=O)CC(C)C)C(=O)N[C@@H](Cc2c[nH]cn2)C(=O)N[C@@H](C(c2ccccc2)c2ccccc2)C(=O)N1)C(=O)NCC(c1ccccc1)c1ccccc1 [compound 121] | 10 to 100 |  |  |
| CCCCCCCCCCCCCCCC(=O)NCC[N+](C)(C)CC(=O)NCCOCCOCC(=O)NCCOCCOCC(=O)NCCCC[C@H](NC(=O)[C@@H]1CSSC[C@H](NC(=O)[C@H](CCC(=O)O)NC(=O)CC(C)C)C(=O)N[C@@H](Cc2cnc[nH]2)C(=O)N[C@@H](C(c2ccccc2)c2ccccc2)C(=O)N1)C(=O)NCCCCc1ccccc1 [compound 122] |  | 1 to 10 |  |
| CCCCCCCCCCCCCCCC(=O)NCC[N+](C)(C)CC(=O)NCCCCCC(=O)NCCCC[C@H](NC(=O)[C@@H]1C[C@H]2CN1C(=O)[C@H](C(c1ccccc1)c1ccccc1)NC(=O)[C@H](Cc1c[nH]cn1)NC(=O)[C@@H](NC(=O)[C@H](CCC(=O)O)NC(=O)CC(C)C)CSS2)C(=O)NCCCCc1ccccc1 [compound 125] |  | 10 to 100 |  |
| CCCCCCCCCCCCCCCC(=O)N[C@@H](CN)C(=O)NCCOCCOCC(=O)NCCOCCOCC(=O)NCCCC[C@H](NC(=O)[C@@H]1C[C@@H]2CN1C(=O)[C@H](C(c1ccccc1)c1ccccc1)NC(=O)[C@H](Cc1cnc[nH]1)NC(=O)[C@@H]1C[C@@H](CN1C(=O)[C@H](CCC(=O)O)NC(=O)CC(C)C)SS2)C(=O)NCCCCc1ccccc1 [compound 127] |  | 10 to 100 | 1 to 10 |
| CCCCCCCCCCCCCCCC(=O)NCCCCCC(=O)NCCCC[C@H](NC(=O)[C@H]1CSSC[C@H](NC(=O)[C@H](CCC(=O)O)NC(=O)CC(C)C)C(=O)N[C@@H](Cc2c[nH]cn2)C(=O)N[C@@H](C(c2ccccc2)c2ccccc2)C(=O)N1)C(=O)N[C@H](C(N)=O)C(c1ccccc1)c1ccccc1 [compound 128] |  | 10 to 100 | 100 to 500 |
| CCCCCCCCCCCCCCCC(=O)NCCCCCC(=O)NCCCC[C@H](NC(=O)[C@@H]1CSSC[C@H](NC(=O)[C@H](CCC(=O)O)NC(=O)CC(C)C)C(=O)N[C@@H](Cc2c[nH]cn2)C(=O)N[C@@H](C(c2ccccc2)c2ccccc2)C(=O)N1)C(=O)N[C@H](C(N)=O)C(c1ccccc1)c1ccccc1 [compound 129] |  |  | > 500 |
